# Results taken from ChEMBL document CHEMBL1201862, “PubChem BioAssay data set” (2004).
# The other results are listed elsewhere or left out. Rule as the data show it: active = GI50 up to about 1.1 µM and inactive = higher. Entries with a potency or affinity are not part of this list. Only a part of the results of these assays is listed, not drawn at random.
# Tested on: NCI-H23
row,SMILES,GI50
1,N1=C(c2nnn[nH]2)NNC(c2nnn[nH]2)=N1,inactive: > 100 µM
2,CCN(CCO)CCO.Oc1c(Cl)c(Cl)c(Cl)c(Cl)c1Cl,inactive: 15.3 µM
3,CC1=C[C@H]2O[C@@H]3[C@H](O)[C@@H](O)[C@](C)([C@@]2(O)CC1)[C@]31CO1,active: 0.207 µM

# Tested on: RXF 393
row,SMILES,GI50
1,N1=C(c2nnn[nH]2)NNC(c2nnn[nH]2)=N1,inactive: > 100 µM
2,CCN(CCO)CCO.Oc1c(Cl)c(Cl)c(Cl)c(Cl)c1Cl,inactive: 32.7 µM
3,CC1=C[C@H]2O[C@@H]3[C@H](O)[C@@H](O)[C@](C)([C@@]2(O)CC1)[C@]31CO1,active: 0.218 µM
